# Earlier results in US5360612A, “Pharmaceutical compositions containing triazole derivatives for rectal administration” (Pfizer Inc., priority 1992, dated 1994).
# Details: in vivo
compound,measurement,value
COc1ccc2c3c1O[C@H]1[C@@H](O)C=C[C@H]4[C@@H](C2)N(C)CC[C@@]341 [codeine],bioavailability from suppository fatty bases,do not show good bioavailability
